What was measured:
[1] = PreHIA data set, value given as fraction; cited from earlier work
[2] = Human intestinal absorption percentage values of the PreHIA data set (732 compounds, Table S2); settings: class from HIA value

**Q.** Which “HIA(Human Intestinal Absorption)” value [1] does the source give for O=P1(N(CCCl)CCCl)OCCCN1CCCl (centres unmarked) here?
**A.** 1

**Q.** And the “Class(High: HIA value ≥0.7; Low: HIA value < 0.7)” value [2]?
**A.** High (High: HIA value ≥0.7)

Reference: article PMC4460250, “Systems Pharmacology Dissecting Holistic Medicine for Treatment of Complex Diseases: An Example Using Cardiocerebrovascular Diseases Treated by TCM” (Evidence-based Complementary and Alternative Medicine : eCAM, 2015)
